Measurements from ChEMBL document CHEMBL2401649, “Cyclic enkephalins with a diversely substituted guanidine bridge or a thiourea bridge: synthesis, biological and structural evaluations” (J Med Chem, 2013).

Chains of the proteins cited; added tags and fusions are not shown.
UniProt P97266, whole entry, looked up: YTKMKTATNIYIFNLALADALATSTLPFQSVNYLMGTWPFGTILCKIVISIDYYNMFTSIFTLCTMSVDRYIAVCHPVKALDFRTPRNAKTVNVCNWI
UniProt P32300, whole entry, looked up: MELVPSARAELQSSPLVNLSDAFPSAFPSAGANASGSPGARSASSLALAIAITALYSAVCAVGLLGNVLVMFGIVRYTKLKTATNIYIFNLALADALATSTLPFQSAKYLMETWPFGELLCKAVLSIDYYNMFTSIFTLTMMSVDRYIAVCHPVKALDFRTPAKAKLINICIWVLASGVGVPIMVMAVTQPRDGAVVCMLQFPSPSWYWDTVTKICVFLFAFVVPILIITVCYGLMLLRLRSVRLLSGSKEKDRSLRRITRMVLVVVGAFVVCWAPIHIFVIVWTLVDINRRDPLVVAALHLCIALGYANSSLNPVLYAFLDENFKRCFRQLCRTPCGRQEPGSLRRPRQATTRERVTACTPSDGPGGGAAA

Columns and labels:
[1] = species: Rattus norvegicus; assay: Selectivity ratio of Ki for delta opioid receptor in Wistar rat brain membranes to Ki for mu opioid receptor in Wistar rat brain membranes; format: cell membranes; details: Membrane
[2] = target: Mu-type opioid receptor (Cavia porcellus) (UniProt P97266); assay: Agonist activity at mu opioid receptor in guinea pig ileum relative to leu-enkephalin
[3] = target: Delta-type opioid receptor (Mus musculus) (UniProt P32300); assay: Agonist activity at delta opioid receptor in mouse vas deferens relative to leu-enkephalin

| SMILES | Ratio Ki [1] | fold change (FC) [2] | fold change (FC) [3] |
| --- | --- | --- | --- |
| NC(=O)[C@@H]1C/N=C(/N2CCCCC2)NC[C@@H](NC(=O)[C@@H](N)Cc2ccc(O)cc2)C(=O)NCC(=O)N[C@@H](Cc2ccccc2)C(=O)N1 | 5.5 and 10.5 and 10.2 | 0.618 | 0.0373 |
| CS/C1=N/C[C@@H](C(N)=O)NC(=O)[C@H](Cc2ccccc2)NC(=O)CNC(=O)[C@H](NC(=O)[C@@H](N)Cc2ccc(O)cc2)CN1 | 2.6 | 13.8 | 0.55 |
| NC(=O)[C@@H]1C/N=C(/N)NC[C@@H](NC(=O)[C@@H](N)Cc2ccc(O)cc2)C(=O)NCC(=O)N[C@@H](Cc2ccccc2)C(=O)N1 | 38.9 | 1.01 | 0.0329 |
| NC(=O)[C@@H]1CNC(=S)NC[C@@H](NC(=O)[C@@H](N)Cc2ccc(O)cc2)C(=O)NCC(=O)N[C@@H](Cc2ccccc2)C(=O)N1 (stereo in doubt; 7a) | 10.5 and 13.5 | 140 | 4.81 |
| CN/C1=N/C[C@@H](C(N)=O)NC(=O)[C@H](Cc2ccccc2)NC(=O)CNC(=O)[C@H](NC(=O)[C@@H](N)Cc2ccc(O)cc2)CN1 | – | 5.89 | 0.149 |

Several values for one entry are separate records, joined by “and”; a condition that tells them apart may be missing. Equal entries are not always repeated.
